Test results taken from patent publication US7300950B2, “Pyrazole derivatives, their preparation and their use in pharmaceuticals” (Aventis Pharma Deutschland GmbH, priority 1997, dated 2007).

Target: T1, soluble guanylate cyclase (sGC) isolated from bovine lung (Bos taurus, UniProt P16068+P19687)
T1 construct: The sGC which was employed had been isolated from bovine lung; from tissue; host or cells: bovine lung
T1 sequence (P16068 1-619): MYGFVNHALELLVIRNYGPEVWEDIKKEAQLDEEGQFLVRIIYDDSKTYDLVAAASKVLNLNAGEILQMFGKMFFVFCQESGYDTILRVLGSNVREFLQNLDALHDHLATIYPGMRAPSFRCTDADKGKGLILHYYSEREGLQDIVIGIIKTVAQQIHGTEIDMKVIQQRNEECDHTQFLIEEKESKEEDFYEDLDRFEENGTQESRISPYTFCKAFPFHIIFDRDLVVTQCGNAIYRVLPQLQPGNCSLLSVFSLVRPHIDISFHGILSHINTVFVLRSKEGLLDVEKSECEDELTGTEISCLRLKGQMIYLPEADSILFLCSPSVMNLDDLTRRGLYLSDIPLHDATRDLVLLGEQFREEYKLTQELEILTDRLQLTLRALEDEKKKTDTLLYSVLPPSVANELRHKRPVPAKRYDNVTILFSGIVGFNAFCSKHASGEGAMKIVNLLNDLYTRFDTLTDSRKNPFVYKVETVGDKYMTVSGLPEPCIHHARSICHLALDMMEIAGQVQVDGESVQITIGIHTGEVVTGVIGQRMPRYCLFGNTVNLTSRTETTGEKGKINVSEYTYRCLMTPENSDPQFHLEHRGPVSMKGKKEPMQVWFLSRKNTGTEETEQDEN
T1 sequence (P19687 1-691): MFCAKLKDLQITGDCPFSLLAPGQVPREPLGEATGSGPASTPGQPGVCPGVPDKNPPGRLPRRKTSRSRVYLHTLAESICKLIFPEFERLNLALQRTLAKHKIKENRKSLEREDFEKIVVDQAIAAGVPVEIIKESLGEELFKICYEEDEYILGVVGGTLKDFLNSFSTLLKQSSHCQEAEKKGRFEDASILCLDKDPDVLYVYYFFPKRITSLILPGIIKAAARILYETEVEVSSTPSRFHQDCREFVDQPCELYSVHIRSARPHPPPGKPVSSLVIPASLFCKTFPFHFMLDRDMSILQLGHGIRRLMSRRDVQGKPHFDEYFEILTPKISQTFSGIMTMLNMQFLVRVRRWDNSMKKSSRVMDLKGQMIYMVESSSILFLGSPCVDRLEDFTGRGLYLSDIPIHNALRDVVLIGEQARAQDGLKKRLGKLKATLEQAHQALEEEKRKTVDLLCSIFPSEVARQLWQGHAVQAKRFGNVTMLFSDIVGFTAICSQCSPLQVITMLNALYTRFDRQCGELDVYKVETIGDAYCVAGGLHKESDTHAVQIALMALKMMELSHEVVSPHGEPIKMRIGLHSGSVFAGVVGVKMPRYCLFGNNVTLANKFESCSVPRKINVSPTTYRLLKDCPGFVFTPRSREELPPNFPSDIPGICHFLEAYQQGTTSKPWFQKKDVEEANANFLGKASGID
Test: Activation of the soluble guanylate cyclase (cGMP enzyme immunoassay)
Type: biochemical
Conditions: concentration 100 μM; n-fold stimulation of basal enzyme activity = [cGMP]test substance/[cGMP]control
Method: 1. Activation of the Soluble Guanylate Cyclase
The activation of the sGC, which catalyzes the conversion of GTP into cyclic guanosine monophosphate cGMP and pyrophosphate, by the compounds according to the invention was quantified with the aid of an enzyme immunoassay “EIA” from Amersham. For this purpose the substances to be tested were initially incubated with sGC in microtiter plates, and the amount of the cGMP formed was then determined.
The test solutions (100 μl per well) contained 50 mM triethanolamine “TEA” buffer (pH 7.5), 3 mM MgCl2, 3 mM reduced glutathione “GSH,” 0.1 mM GTP, 1 mM 3-isobutyl-1-methylxanthine “IBMX,” suitably diluted enzyme solution and the substance to be tested or, in the control experiments, the solvent. […] The DMSO concentration in the test solution was 5% (v/v). The reaction was initiated by addition of the sGC. The reaction mixture was incubated at 37° C. for 15 to 20 minutes and then stopped by ice-cooling and addition of the stop reagent (50 mM EDTA, pH 8.0). […] The absorption of the samples was measured at 450 nm (reference wavelength 620 nm) in a microtiter plate reader. The cGMP concentration was determined using a standard curve which was obtained under the same test conditions. […] This is calculated using the formula: n-fold stimulation=[cGMP]test substance/[cGMP]control.

n-fold stimulation: 3.2-fold
Substance: 1-Benzyl-3-(5-(1-hydroxyprop-2-in-1-yl)-2-furyl)indazole [Example 44]
